The text below walks through data of ChEMBL document CHEMBL4387722.

Amino acid sequences for entries named in this document (tags omitted).
UniProt P0A6F5, whole entry, looked up: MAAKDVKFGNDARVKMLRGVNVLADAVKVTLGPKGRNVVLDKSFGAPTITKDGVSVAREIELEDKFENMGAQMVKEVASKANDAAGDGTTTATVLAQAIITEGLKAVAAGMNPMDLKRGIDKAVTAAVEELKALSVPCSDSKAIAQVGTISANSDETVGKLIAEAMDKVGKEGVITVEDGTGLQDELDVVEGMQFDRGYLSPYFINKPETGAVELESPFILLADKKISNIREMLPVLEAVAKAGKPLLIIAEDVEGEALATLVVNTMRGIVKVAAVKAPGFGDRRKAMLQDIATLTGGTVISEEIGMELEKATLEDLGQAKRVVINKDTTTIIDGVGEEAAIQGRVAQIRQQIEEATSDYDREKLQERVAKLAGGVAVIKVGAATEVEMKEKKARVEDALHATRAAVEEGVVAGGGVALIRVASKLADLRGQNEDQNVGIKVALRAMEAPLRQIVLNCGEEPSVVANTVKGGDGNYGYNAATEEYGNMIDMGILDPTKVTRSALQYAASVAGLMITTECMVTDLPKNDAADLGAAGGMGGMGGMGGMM

Assay [1] addresses T1, E. coli GroEL/ES (Escherichia coli, UniProt P0A6F5). Briefly: Inhibition of Escherichia coli GroEL expressed in Escherichia coli DH5alpha/Escherichia coli GroES expressed in Escherichia coli BL21 (DE3) assessed as reduction in GroEL/GroES-mediated denatured rhodanese refolding by measuring rhodanese enzyme activity after 45 mins by Fe(SCN)3 dye based spectrometric analysis.

Assay [2] concerns the target T1, E. coli GroEL/ES. The assay can be described thus: Inhibition of Escherichia coli GroEL expressed in Escherichia coliDH5alpha/Escherichia coli GroES expressed in Escherichia coli BL21 (DE3) assessed as reduction in GroEL/GroES-mediated denatured pig heart mitochondrial MDH refolding by measuring MDH enzyme activity using sodium mesoxalate as substrate after 20 to 40 mins by spectrometric analysis.

In the case of `O=S(=O)(Nc1ccc2oc(-c3ccccc3)nc2c1)c1ccc(F)c(C(F)(F)F)c1`, the IC50 stood at 122 µM on E. coli GroEL/ES [1] and 48 µM on E. coli GroEL/ES [2].
The like results for `O=S(=O)(Nc1ccc2oc(-c3ccccc3)nc2c1)c1cccc(Cl)c1` were, in that order, 124 µM and 78 µM.
For the molecule `COc1cccc(S(=O)(=O)Nc2ccc(-c3nc4ccccc4o3)cc2)c1`, the IC50 at E. coli GroEL/ES [1] was determined as 174 µM; at E. coli GroEL/ES [2], 76 µM.
The like results for `COc1ccc(S(=O)(=O)Nc2ccc3oc(-c4ccccc4)nc3c2)cc1` were, in that order, 175 µM and 95 µM.
The like results for `O=S(=O)(Nc1ccc(-c2nc3ccccc3o2)cc1)c1ccc(O)cc1` were, in that order, 138 µM and 54 µM.
Consider `CS(=O)(=O)Nc1ccc2oc(-c3ccccc3)nc2c1`, for which the results for the IC50 on E. coli GroEL/ES [1] and at E. coli GroEL/ES [2] were 193 µM and greater than 100 µM, respectively.
Consider `Cc1cccc(S(=O)(=O)Nc2ccc3oc(-c4ccccc4)nc3c2)c1`, for which the IC50 on E. coli GroEL/ES [1] is 200 µM; at E. coli GroEL/ES [2] it was greater than 100 µM.
The like results for `O=S(=O)(Nc1ccc2oc(-c3ccccc3)nc2c1)c1ccc(O)cc1` were, in that order, 111 µM and 64 µM.
The like results for `COc1ccc(S(=O)(=O)Nc2ccc(-c3nc4ccccc4o3)cc2)cc1` were, in that order, 140 µM and 63 µM.
For `COc1ccccc1S(=O)(=O)Nc1ccc(-c2nc3ccccc3o2)cc1`, the results for the IC50 at E. coli GroEL/ES [1] and at E. coli GroEL/ES [2] were 113 µM and 90 µM, respectively.
The like results for `O=S(=O)(Nc1ccc2oc(-c3ccccc3)nc2c1)c1cccc(F)c1` were, in that order, 146 µM and greater than 100 µM.
The like results for `O=S(=O)(Nc1ccc(-c2nc3ccccc3o2)cc1)c1cccc(O)c1` were, in that order, 132 µM and 72 µM.
The like results for `O=S(=O)(Nc1ccc2oc(-c3ccccc3)nc2c1)c1ccccc1O` were, in that order, 194 µM and 70 µM.

Broadly, the IC50 is the concentration that gives 50% inhibition.
